This is an account of results in publication PMC6207724, “Mechanism of activating mutations and allosteric drug inhibition of the phosphatase SHP2” (Nature Communications, 2018).

One assay addresses FL-C459S SHP2 (Homo sapiens, UniProt Q06124, C459S). To be noted: predominantly open conformation.
In assay [1] the target is T1, FL-E76D SHP2 (Homo sapiens, UniProt Q06124, E76D). To be noted: predominantly closed conformation.
Assay [2] has as its target T1, FL-E76D SHP2. The following applies: kobs at 500 μM substrate.
A further assay deals with FL-C459E SHP2 (Homo sapiens, UniProt Q06124, C459E). The following applies: predominantly closed conformation.
Another assay deals with FL-E76K SHP2 (Homo sapiens, UniProt Q06124, E76K). The following applies: kobs at 500 μM substrate.

On to `CC1(N)CCN(c2cnc(-c3cccc(Cl)c3Cl)c(N)n2)CC1` [SHP099], for which the results for the “SHP099 affinity (ITC), in words” value on FL-C459S SHP2, at FL-E76D SHP2 [1] and at FL-C459E SHP2 were “much weaker affinities”, “tight affinities” and “tight affinities”, respectively. The entries for the “SHP099 concentration needed to restore WT activity levels” value on FL-E76D SHP2 [2] and on FL-E76K SHP2 were around 4.1 µM and above 180 µM, respectively.
